In the assay the target is T1, MDA-9 PDZ12 tandem domain (PDZ1) (Homo sapiens, UniProt O00560).
T1 construct: the MDA-9/Syntenin construct used for the screen contains both PDZ domains; made in house
T1 sequence (O00560 110-274): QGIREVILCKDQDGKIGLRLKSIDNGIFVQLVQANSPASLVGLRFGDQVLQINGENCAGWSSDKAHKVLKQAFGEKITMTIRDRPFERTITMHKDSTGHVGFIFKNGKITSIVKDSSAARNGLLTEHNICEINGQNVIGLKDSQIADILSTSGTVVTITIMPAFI
Description: NMR [15N,1H] HSQC chemical shift change and titration binding. The protocol:
FIGS. 4A-4E. FIG. 4A. Chemical structures of the two initial fragment hits (top) and the structure of the resulting molecule 113B7 (PDZ1i). FIG. 4B. Superposition of 2D [^15N, ^1H]-HSQC spectra of 50 μM MDA-9 PDZ12 tandem domain in the absence and presence of 350 μM 113B7. FIG. 4C. Binding curve and representative spectra for the titration of 113B7 against MDA-9 PDZ12 tandem domain. Top: Zoom of box region in FIG. 4B after titrating 113B7 into Mda9 PDZ, tandem domain. The cross peak corresponding to the backbone amide of residue A147 experiences a gradual shift upon the addition of 113B7. Bottom: Titration curve of 113B7 for residue A147. The dissociation constant for the binding of 113B7 to MDA-9 was calculated to be 21.37±8.62 μM. FIG. 4D. Superposition of 2D [^15N, ^1H]-HSQC spectra of 50 μM PDZ domain from X11/mint scaffold protein ([…]; 33% identity with PDZ1) are shown in absence and in presence of […] 113B7. […] FIG. 4E. Docked structure of 113B7 in complex with MDA-9 PDZ tandem domain (PDB: 1W9E). The pose was obtained with GOLD. Two PDZ domains of MDA-9 are labeled.
A small molecule targeting MDA-9/Syntenin inhibits invasion and radiosensitizes GBM. […] FBDD is an important technique that has been used with success in efforts to develop small molecule inhibitors of challenging drug targets including those involved in protein-protein interactions. […]

Consider `O=C(Nc1cc(Cl)c(O)c(Cl)c1)c1nc2[nH]c3c(c(=O)n2n1)CCC3` [112F11], for which the Kd stood at 71.8 µM.

As a reminder, the Kd is a measure of binding affinity in units of concentration.

The values above are taken from patent US11008325B2, “Inhibitors of cancer invasion, attachment, and/or metastasis” (VIRGINIA COMMONWEALTH UNIVERSITY, priority 2016, dated 2021).
